From patent US7270830B2, “Transdermal buprenorphine dosage regimen for analgesia” (dated 2007)
Marks after values point to notes of the source that are not given here.

Experiment: Plasma buprenorphine/norbuprenorphine pharmacokinetics, BTDS 5-10-20 escalation (Example 1)
Settings: for AUCt, mean (SE) / AUC∞, mean (SE) / Cmax, mean (SE) / t1/2, mean (SE) / tmax, mean (SE): plasma
[1] = Elderly Healthy, after application of BTDS 20
[2] = Elderly Hypertensive, after application of BTDS 20
[3] = Young Healthy, after application of BTDS 20

Structure (SMILES): CO[C@]12CC[C@@]3(C[C@@H]1[C@](C)(O)C(C)(C)C)[C@H]1Cc4ccc(O)c5c4[C@@]3(CCN1)[C@H]2O5
- AUCt, mean (SE) (Elderly Healthy (n = 10), after application of BTDS 20): 26210 (3102) pg · h/mL
- AUC∞, mean (SE) [1]: 30913 (3976)^b pg · h/mL
- Cmax, mean (SE) [1]: 158 (18) pg/mL
- t1/2, mean (SE) [1]: 48 (5)^b h
- tmax, mean (SE) [1]: 257 (14) h
- AUCt, mean (SE) (Elderly Hypertensive (n = 11), after application of BTDS 20): 37695 (4023) pg · h/mL
- Cmax, mean (SE) [2]: 260 (40) pg/mL
- tmax, mean (SE) [2]: 295 (13) h
- AUCt, mean (SE) (Young Healthy (n = 11), after application of BTDS 20 (BTDS 5-10-20 escalation)): 31359 (3447) pg · h/mL
- AUC∞, mean (SE) [3]: 33535 (3945)^a pg · h/mL
- Cmax, mean (SE) [3]: 191 (21) pg/mL
- t1/2, mean (SE) [3]: 45 (7)^a h
- tmax, mean (SE) [3]: 240 (16) h
- Between-group differences in pharmacokinetic parameters (young healthy vs elderly healthy vs elderly hypertensive): no statistically significant differences
